# Screening data (PubChem BioAssay)
# Most compounds without a hit are left out; they make up all but 0.92% or so of the library.
# PKM2 act: PKM2 (human) enzyme activation; P14618; purified PKM2, Kinase-Glo ATP luminescence, activation; response scale: 0% is enzyme alone, no compound; Potency, µM (titrated, usually from 57.5 µM), for the others: at the highest dose activation, hits mostly activators; 260,000 compounds, 0.34% hits; further: potency means the concentration at half of the fitted maximal effect; on the % scale 0 is the no-effect control and ±100 the full control effect; nearly all actives have a fitted effect of over 55% in size
#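 Purified hPK-M2 (>95%) run at intermediate activity with 0.1 mM ADP and 0.5 mM PEP in 50 mM imidazole pH 7.2, KCl, MgCl2; 1 h room temperature. ATP formed read by Kinase-Glo luminescence; normalized to uninhibited and no-enzyme controls.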
# GALK inh: galactokinase (human) inhibition | P51570 | Purified GALK, Kinase-Glo residual ATP luminescence | Potency, µM (highest dose often 57.5 µM), inactives show at the top dose activity change, negative = inhibition, actives largely listed as inhibitors | 270,000 compounds, 0.007% hits; further: potency means the concentration at half of the fitted maximal effect; on the % scale 0 is the no-effect control and ±100 the full control effect
#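 GALK at 5 nM final was combined with compound, 35 uM ATP and 100 uM galactose in HEPES pH8.0 with MgCl2 and DTT. The reaction ran one hour at room temperature before luminescent ATP detection.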
# RXFP1 antagonist: blocks the human relaxin receptor RXFP1; HEK293-RXFP1, relaxin-stimulated cAMP HTRF, 30 min; active compounds read low; activity change, negative = inhibition, % at 57.5 µM; 350,000 compounds, 0.59% hits; AID 1259400;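 active means activity change of -60% or lower, but not beyond a set lower limit; inconclusive means change between -60% and -40%, or beyond the set limit; inactive means change above -40%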; further: on the % scale 0 is the no-effect control and ±100 the full control effect
# KinaseGlo FLuc: Kinase-Glo luciferase inhibition (counter-screen); Q27757; Kinase-Glo luciferase, ATP luminescence, 8 min; Potency, µM (series often up to 38.3 µM), inactives show top-dose activity change, negative = inhibition, most hits filed as inhibitors; 200,000 compounds, 0.28% hits; further: potency means the concentration at half of the fitted maximal effect; on the % scale 0 is the no-effect control and ±100 the full control effect; nearly all actives have a fitted effect of over 60% in size
#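 Luminescence was the read-out, taken after 8-minute incubation at ambient temperature. Luciferase turned over luciferin with 10 uM ATP in imidazole pH 7.2 buffer containing KCl, MgCl2, Tween 20 and BSA.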
# miR-21 reporter: miR-21 reporter, rising signal | AID 2288 | HeLa miR-21 FLuc reporter, luciferase, 48 h | 340,000 tested, under 10 active | Potency, µM (titrated, usually from 38.3 µM), for the others: at the top dose reporter change, positive = more light; active = well fitted rising curve with a large enough effect; inconclusive = small, poorly fitted or top-dose-only effect; inactive = no such curve, though single readings can be large or run the other way;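 also: % of control where 0% means no effect; miR-21 action dims this reporter so a rising signal means less miR-21 action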
#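 HeLa cells endogenously expressing miR-21, stably carrying CMV-driven firefly luciferase with a downstream miR-21 binding site, 2000 cells/well. Titrations up to approximately 40 uM, 48 hours; luciferase luminescence read.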
# RXFP1 ag: activates the human relaxin receptor RXFP1; Potency, µM (series often up to 57.5 µM), for inactives: at the top dose activation, most hits filed as activators; HEK293T-RXFP1 cAMP TR-FRET, 30 min; response scale: percent of porcine relaxin response, buffer zero; Q9HBX9; 370,000 compounds, 0.3% hits; further: potency means the concentration at half of the fitted maximal effect; on the % scale 0 is the no-effect control and ±100 the full control effect; nearly all actives have a fitted effect of over 60% in size
#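 cAMP rise read by TR-FRET after 30 min, 37C compound exposure (up to 58 uM) in RXFP1-transfected HEK293 cells with Ro 20174 present. EC50 from Hill-equation fits, with 29 nM porcine relaxin as 100% and buffer as basal.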
# Starred values were filed as active, the others as inactive; ? = inconclusive; · = not tested or not shown; [ ] = remark or other dose. Unless noted, the call rests on the fitted dose curve; in most records, active means well fitted curve in the direction sought with a large enough effect; inconclusive means small, poorly fitted or top-dose-only effect, or another doubt; inactive means no such curve, though single readings can be large; an effect the other way counts as inactive or inconclusive.
# Labels used below – A = PKM2 act; B = GALK inh; C = RXFP1 antagonist; D = KinaseGlo FLuc; E = miR-21 reporter; F = RXFP1 ag
COc1ccc(S(=O)(=O)N2CCC(C(=O)NCc3cccnc3)CC2)cc1OC
  A = 2%; B = 1%; C = -5; D = ·; E = 0%; F = 1%

C/C(=C(/CCO)SS/C(CCO)=C(\C)N(C=O)Cc1cnc(C)nc1N)N(C=O)Cc1cnc(C)nc1N
  A = ·; B = ·; C = 12; D = ·; E = ·; F = ·

Cc1ccc(S(=O)(=O)Nc2ccccc2/C=N/c2nc3ccccc3n2C(C)C)cc1
  A = 3%; B = 0%; C = -64*; D = 0%; E = ?; F = 0%

CCCCn1c(/N=C/c2ccccc2NS(=O)(=O)c2ccc(C)cc2)nc2ccccc21
  A = 9%; B = -2%; C = ·; D = -1%; E = ?; F = -1%

Cc1ccc(Nc2nc(=O)c3cccnc3s2)cc1
  A = -2%; B = 2%; C = 1; D = -19%; E = -31%; F = 5%

COc1ccc(OC)c(Nc2nc(=O)c3cccnc3s2)c1
  A = 8.9µM*; B = -1%; C = -3; D = 11µM*; E = -5%; F = 1%

COc1ccc(/C=C/C2=C[C@]3(C)C[C@]2(C)[C@H](c2ccc(OC)cc2)CC3=O)cc1
  A = ·; B = ·; C = ·; D = -6%; E = ·; F = ·

COc1ccc2cc3c(N)nn(C(=O)c4ccccc4Cl)c3nc2c1
  A = 20µM*; B = 4%; C = -2; D = ·; E = ?; F = 0%

CCOC(=O)c1c(NC(=O)CSc2n[nH]c(CNc3ccccc3)n2)sc(C)c1C
  A = -14%; B = -1%; C = ?; D = 1%; E = -4%; F = -2%

CCOC(=O)c1c(NC(=O)CSc2n[nH]c(-c3ccco3)n2)sc(C)c1C
  A = 9%; B = -2%; C = -75*; D = 1%; E = -7%; F = -1%

CC1(C)COC(Cn2c3ccccc3c3ccccc32)O1 (stereo not drawn)
  A = -2%; B = -1%; C = -65*; D = ·; E = 23%; F = -2%

CCC(C)NCCOCCOc1ccc(Cl)c(C)c1C (stereo not drawn)
  A = 4%; B = 2%; C = -68*; D = -1%; E = -6%; F = 0%

CCC(C)NCCOCCOc1ccc(Cl)c2ccccc12 (stereo not drawn)
  A = -9%; B = -2%; C = -78*; D = -1%; E = ?; F = 0%

C=CCc1cc(Cl)ccc1OCCOCCNC(C)CC (stereo not drawn)
  A = 3%; B = -1%; C = ?; D = ·; E = -11%; F = -3%

CCC(C)NCCCOc1cc(Cl)ccc1Cl (stereo not drawn)
  A = -7%; B = 2%; C = -5; D = -2%; E = -8%; F = 0%

COc1ccc(S(=O)(=O)N2c3ccc(Cl)cc3[C@@](O)(c3ccccc3Cl)[C@H]2C(=O)N2CCC[C@@H]2C(N)=O)cc1OC
  A = ·; B = ·; C = -16; D = ·; E = ·; F = ·

CCN1CCc2c(sc(NC(=O)c3ccc(S(=O)(=O)N(C)CC4CCCO4)cc3)c2C(N)=O)C1 (stereo not drawn)
  A = -13%; B = -3%; C = -26; D = ·; E = 3%; F = -2%

COc1cccc(CNc2ncc(Br)cc2Br)c1O
  A = 11%; B = 3%; C = -78*; D = -1%; E = -44%; F = 3%

Cc1ccc(S(=O)(=O)Oc2cccc(/C=N/Nc3ccc(C(=O)O)cc3)c2)cc1
  A = 6%; B = -8%; C = -62*; D = ·; E = -70%; F = 0%

Cc1ccc(S(=O)(=O)Oc2cccc(/C=N/n3cnnc3)c2)cc1
  A = 0%; B = 2%; C = ·; D = 1%; E = -6%; F = 0%

O=C1C(C2=C(O)c3ccccc3C2=O)=Nc2ccccc21
  A = -9%; B = ?; C = 14; D = 11µM*; E = -14%; F = -1%

CCOc1ccc(-c2nonc2NC(=O)c2oc3cc(C)ccc3c2C)cc1
  A = ·; B = ·; C = -66*; D = ·; E = 28%; F = -3%

COc1ccc(NC(=O)CSc2nnnn2C)cc1S(=O)(=O)N1CCCCC1
  A = ·; B = ·; C = -82*; D = ·; E = ·; F = 4%

CCOC(=O)c1c(NC(=O)C2COc3ccccc3O2)sc2c1CCN(Cc1ccccc1)C2 (stereo not drawn)
  A = -19%; B = 0%; C = 3; D = 3%; E = 11%; F = 1%

NC(=O)c1c(NC(=O)C2COc3ccccc3O2)sc2c1CCN(Cc1ccccc1)C2 (stereo not drawn)
  A = -1%; B = -1%; C = -97*; D = -1%; E = 5%; F = 6%

# The list goes on:
# Labels used below – A = PKM2 act; B = GALK inh; C = RXFP1 antagonist; D = KinaseGlo FLuc; E = miR-21 reporter; F = RXFP1 ag
Cc1cc(SCn2nnc3ccccc3c2=O)nc2ccccc12
  A = 3%; B = 0%; C = 6; D = 1%; E = -6%; F = 8%

Cc1ccc(-n2nnnc2SCn2nnc3ccccc3c2=O)c(C)c1
  A = 16µM*; B = 0%; C = 2; D = -2%; E = -9%; F = 3%

N#C/C(=C1\SCC(c2ccccc2Cl)S1)n1ccnc1 (stereo not drawn)
  A = ·; B = ·; C = 17; D = ·; E = ·; F = ·

COc1ccc(S(=O)(=O)N2CCc3cc(OC)c(OC)cc3C2)cc1
  A = 7.9µM*; B = 0%; C = -4; D = ·; E = 1%; F = -2%

COc1ccc(C(=O)Nc2cccc(-c3cc4ccccc4oc3=O)c2)cc1[N+](=O)[O-]
  A = -11%; B = ·; C = 3; D = -1%; E = -2%; F = -1%

Cc1nc2cccnc2n1-c1cccc(C(=O)N2CCN(c3cccc(Cl)c3)CC2)c1
  A = ·; B = ·; C = -64*; D = ·; E = ?; F = 19%

CC(Sc1cccc2cccc(C(=O)O)c12)C(=O)O (stereo not drawn)
  A = -5%; B = 4%; C = 12; D = 1%; E = 0%; F = -1%

CC(Sc1ccc2ccccc2n1)C(=O)O (stereo not drawn)
  A = -10%; B = -1%; C = 48; D = -4%; E = -7%; F = 11µM*

COC(=O)C1=C(C(=O)OC)[C@@H]2N(C)c3ccc(OC)cc3[C@@]23C[C@@H](C(=O)OC)N(S(=O)(=O)c2c(C)noc2C)C3=N1
  A = -3%[11.5 µM]; B = ·; C = ·; D = -2%[7.66 µM]; E = ·; F = ·

C=CCNC(=S)Nc1sc2c(c1C(=O)OCC)CCN(C(=O)OCC)C2
  A = -4%; B = -4%; C = -80*; D = 1%; E = -11%; F = 11%

COC(=O)c1cc(=O)c(O)c2c(O)c(O)ccc2c1
  A = ·; B = ·; C = ·; D = -3%; E = ·; F = ·

Cc1nc2ccccc2c(N)c1C(=O)/C=C/c1ccccc1
  A = -2%; B = -3%; C = -83*; D = ·; E = ?; F = -1%

CCN1C(=O)c2ccccc2C1Nc1cccc(OCCN2CCCCC2)c1 (stereo not drawn)
  A = ·; B = ·; C = -7; D = ·; E = ·; F = ·

Cc1ccc(N=Cc2c(C)[nH]n(-c3nc4ccccc4[nH]3)c2=O)cc1
  A = -78%; B = 4%; C = 4; D = 5µM*; E = 22%; F = 4%

Cc1ccc(-n2[nH]c(C)c(C=Nc3ccc4[nH]c(=O)[nH]c4c3)c2=O)cc1
  A = 9%; B = -2%; C = 6; D = -13%; E = -13%; F = -1%

Cc1ccc(/C=C/C2=Cc3c(sc(NC(=O)CSc4n[nH]c(N)n4)c3C#N)C(C)(C)C2)o1
  A = 4.5µM*; B = -3%; C = ·; D = -6%; E = -10%; F = 0%

CN(CCCS(=O)(=O)[O-])c1ccc(/C=C/c2ccc3ccccc3[n+]2C)cc1
  A = ·; B = ·; C = 5; D = ·; E = 4%; F = 1%

CN(C)c1ccc(/C=C/c2ccc3ccccc3[n+]2C)cc1
  A = -32%; B = 6%; C = -92*; D = ?; E = ?; F = 3%

CN(C)c1ccc(/C=C/c2ccc3c4ccccc4ccc3[n+]2-c2ccccc2)cc1
  A = -13%; B = 7%; C = ?; D = 10µM*; E = ?; F = -9%

# Already shown: entries from further up.
# Labels used below – A = PKM2 act; B = GALK inh; C = RXFP1 antagonist; D = KinaseGlo FLuc; E = miR-21 reporter; F = RXFP1 ag
C=CCNC(=S)Nc1sc2c(c1C(=O)OCC)CCN(C(=O)OCC)C2
  A = -4%; B = -4%; C = -80*; D = 1%; E = -11%; F = 11%

COC(=O)c1cc(=O)c(O)c2c(O)c(O)ccc2c1
  A = ·; B = ·; C = ·; D = -3%; E = ·; F = ·

Cc1nc2ccccc2c(N)c1C(=O)/C=C/c1ccccc1
  A = -2%; B = -3%; C = -83*; D = ·; E = ?; F = -1%

CCN1C(=O)c2ccccc2C1Nc1cccc(OCCN2CCCCC2)c1 (stereo not drawn)
  A = ·; B = ·; C = -7; D = ·; E = ·; F = ·
